From patent US20060094649A1, “Hla-a1,-a2,-a3,-a24,-b7, and-b44 tumor associated antigen peptides and compositions” (priority 2002, published 2006)

Test system: HLA-B44 supertype molecules
Assay: HLA-B44 supertype cross-binding
Set-up: species or system human
[1] = number of the six B44 supertype alleles bound

Degeneracy [1]	Compound	Degeneracy
1	CC[C@H](C)[C@H](NC(=O)[C@H](CCC(=O)O)NC(=O)[C@@H]1CCCN1C(=O)[C@H](CCC(=O)O)NC(=O)[C@@H](N)CS)C(=O)N[C@@H](CCC(N)=O)C(=O)N[C@@H](CC(N)=O)C(=O)N[C@H](C(=O)N[C@H](C(=O)O)[C@@H](C)O)[C@@H](C)O	
3	CC[C@H](C)[C@H](NC(=O)[C@H](CCC(=O)O)NC(=O)[C@@H]1CCCN1C(=O)[C@H](CCC(=O)O)NC(=O)[C@@H](N)CS)C(=O)N[C@@H](CCC(N)=O)C(=O)N[C@@H](CC(N)=O)C(=O)N[C@H](C(=O)N[C@H](C(=O)N[C@@H](Cc1ccc(O)cc1)C(=O)N[C@@H](CC(C)C)C(=O)O)[C@@H](C)O)[C@@H](C)O	
3	C[C@H](NC(=O)[C@H](CC(=O)O)NC(=O)[C@H](CCC(N)=O)NC(=O)[C@@H](NC(=O)[C@H](CCC(=O)O)NC(=O)[C@@H]1CCCN1C(=O)[C@H](CCC(=O)O)NC(=O)[C@@H](N)CS)[C@@H](C)O)C(=O)N[C@H](C(=O)O)[C@@H](C)O	
4	CC(C)[C@H](NC(=O)[C@@H]1CCCN1C(=O)[C@H](CC(N)=O)NC(=O)[C@H](CCC(N)=O)NC(=O)[C@@H](NC(=O)[C@H](CCC(=O)O)NC(=O)[C@@H](N)CS)[C@@H](C)O)C(=O)N[C@@H](CO)C(=O)N[C@@H](C)C(=O)O	
5	CC[C@H](C)[C@H](N)C(=O)N[C@@H](CCC(=O)O)C(=O)N[C@@H](CO)C(=O)N[C@H](C(=O)N1CCC[C@H]1C(=O)N[C@@H](Cc1ccccc1)C(=O)N[C@@H](CC(N)=O)C(=O)N[C@H](C(=O)N[C@@H](C)C(=O)N[C@@H](CCC(=O)O)C(=O)NCC(=O)O)C(C)C)[C@@H](C)O	
2	CC[C@H](C)[C@H](NC(=O)[C@H](CCC(=O)O)NC(=O)[C@@H]1CCCN1)C(=O)N[C@@H](CCC(N)=O)C(=O)N[C@@H](CC(N)=O)C(=O)N[C@H](C(=O)N[C@H](C(=O)N[C@@H](Cc1ccc(O)cc1)C(=O)N[C@@H](CC(C)C)C(=O)O)[C@@H](C)O)[C@@H](C)O	
3	CC[C@H](C)[C@H](NC(=O)[C@H](CC(N)=O)NC(=O)[C@@H]1CCCN1C(=O)[C@@H](NC(=O)[C@H](Cc1ccccc1)NC(=O)[C@H](CC(C)C)NC(=O)[C@H](CCC(=O)O)NC(=O)[C@@H](N)CCC(N)=O)[C@@H](C)CC)C(=O)O	
4	CC[C@H](C)[C@H](NC(=O)[C@H](CC(N)=O)NC(=O)[C@@H]1CCCN1C(=O)[C@@H](NC(=O)[C@H](Cc1ccccc1)NC(=O)[C@H](CC(C)C)NC(=O)[C@H](CCC(=O)O)NC(=O)[C@@H](N)CCC(N)=O)[C@@H](C)CC)C(=O)N[C@H](C(=O)O)[C@@H](C)O	
3	CC[C@H](C)[C@H](NC(=O)[C@H](Cc1ccccc1)NC(=O)[C@H](CC(C)C)NC(=O)[C@H](CCC(=O)O)NC(=O)[C@@H](N)CCC(N)=O)C(=O)N[C@@H](CO)C(=O)N[C@@H](CC(N)=O)C(=O)N[C@H](C(=O)N[C@H](C(=O)O)[C@@H](C)O)[C@@H](C)CC	
4	CC[C@H](C)[C@H](NC(=O)[C@H](CCC(=O)O)NC(=O)[C@@H](N)CCCNC(=N)N)C(=O)N[C@H](C(=O)N[C@@H](Cc1ccc(O)cc1)C(=O)N1CCC[C@H]1C(=O)N[C@@H](CC(N)=O)C(=O)N[C@@H](C)C(=O)N[C@@H](CO)C(=O)N[C@@H](CC(C)C)C(=O)O)[C@@H](C)CC	

Further lines, the compound ahead of its results:

Compound	Degeneracy [1]	Degeneracy
CC(C)C[C@H](NC(=O)[C@H](CC(C)C)NC(=O)[C@@H](NC(=O)[C@H](CCC(=O)O)NC(=O)[C@H](CCCCN)NC(=O)CNC(=O)[C@H](CCC(=O)O)NC(=O)[C@H](C)N)C(C)C)C(=O)O	1	
CC(C)C[C@H](NC(=O)[C@H](CC(C)C)NC(=O)[C@H](CC(C)C)NC(=O)[C@@H](NC(=O)[C@H](CCC(=O)O)NC(=O)[C@H](CCCCN)NC(=O)CNC(=O)[C@H](CCC(=O)O)NC(=O)[C@H](C)N)C(C)C)C(=O)O	6	
CC(C)C[C@H](NC(=O)[C@H](CC(C)C)NC(=O)[C@@H](NC(=O)[C@H](CCC(=O)O)NC(=O)[C@H](CCCCN)NC(=O)CNC(=O)[C@H](CCC(=O)O)NC(=O)[C@H](C)N)C(C)C)C(=O)N[C@@H](CC(C)C)C(=O)N[C@H](C(=O)O)C(C)C	4	
CC[C@H](C)[C@H](NC(=O)[C@H](CO)NC(=O)[C@@H]1CCCN1C(=O)[C@H](CCCCN)NC(=O)[C@@H]1CCCN1C(=O)[C@H](CC(C)C)NC(=O)[C@H](CCC(=O)O)NC(=O)[C@H](C)N)C(=O)O	2	
CC[C@H](C)[C@H](NC(=O)[C@H](CCC(=O)O)NC(=O)[C@@H]1CCCN1C(=O)[C@H](CCC(=O)O)NC(=O)[C@@H](N)CS)C(=O)N[C@@H](CCC(N)=O)C(=O)N[C@@H](CC(N)=O)C(=O)N[C@H](C(=O)N[C@H](C(=O)N[C@@H](Cc1ccc(O)cc1)C(=O)N[C@@H](CC(C)C)C(=O)N[C@@H](Cc1c[nH]c2ccccc12)C(=O)N[C@@H](Cc1c[nH]c2ccccc12)C(=O)O)[C@@H](C)O)[C@@H](C)O	2	
CC(C)C[C@H](NC(=O)[C@H](CC(N)=O)NC(=O)[C@H](CCC(=O)O)NC(=O)CN)C(=O)N[C@@H](CC(N)=O)C(=O)N[C@@H](CC(C)C)C(=O)N[C@@H](CO)C(=O)N[C@@H](CS)C(=O)N[C@@H](Cc1c[nH]cn1)C(=O)N[C@@H](C)C(=O)O	3	
CC(C)C[C@H](NC(=O)[C@H](CC(N)=O)NC(=O)[C@H](CCC(=O)O)NC(=O)CN)C(=O)N[C@@H](CC(N)=O)C(=O)N[C@@H](CC(C)C)C(=O)N[C@@H](CO)C(=O)N[C@@H](CS)C(=O)N[C@@H](Cc1c[nH]cn1)C(=O)N[C@@H](C)C(=O)N[C@@H](C)C(=O)O	3	
CC[C@H](C)[C@H](NC(=O)[C@H](CCC(N)=O)NC(=O)[C@H](CCCNC(=N)N)NC(=O)[C@H](CC(N)=O)NC(=O)CNC(=O)[C@H](CC(=O)O)NC(=O)[C@@H](NC(=O)[C@H](CCCNC(=N)N)NC(=O)[C@H](CCC(=O)O)NC(=O)CN)C(C)C)C(=O)O	2	
CC(C)C[C@H](NC(=O)[C@H](CC(N)=O)NC(=O)[C@H](Cc1c[nH]cn1)NC(=O)[C@@H](NC(=O)[C@H](CC(C)C)NC(=O)[C@H](CC(C)C)NC(=O)[C@H](CC(C)C)NC(=O)[C@@H](NC(=O)[C@H](CCC(=O)O)NC(=O)[C@@H](N)CCCCN)C(C)C)C(C)C)C(=O)O	4	
CSCC[C@H](N)C(=O)N[C@@H](CCC(=O)O)C(=O)N[C@@H](CO)C(=O)N1CCC[C@H]1C(=O)N[C@@H](CO)C(=O)N[C@@H](C)C(=O)N1CCC[C@H]1C(=O)N1CCC[C@H]1C(=O)N[C@@H](Cc1c[nH]cn1)C(=O)N[C@@H](CCCNC(=N)N)C(=O)N[C@@H](Cc1c[nH]c2ccccc12)C(=O)O	4	
CC(C)[C@H](NC(=O)[C@H](CCCNC(=N)N)NC(=O)[C@H](Cc1ccccc1)NC(=O)[C@H](CCC(N)=O)NC(=O)CNC(=O)[C@@H](NC(=O)[C@H](C)NC(=O)[C@H](CCC(=O)O)NC(=O)[C@H](CCC(=O)O)NC(=O)[C@@H](N)CC(N)=O)[C@@H](C)O)C(=O)N[C@@H](Cc1ccc(O)cc1)C(=O)O	3	
CC(C)C[C@H](NC(=O)[C@H](CCC(=O)O)NC(=O)[C@@H](N)CC(N)=O)C(=O)N[C@@H](CO)C(=O)N[C@H](C(=O)N[C@@H](CC(=O)O)C(=O)N[C@@H](Cc1c[nH]cn1)C(=O)N[C@@H](CO)C(=O)N[C@@H](CC(=O)O)C(=O)N1CCC[C@H]1C(=O)N[C@H](C(=O)O)C(C)C)C(C)C		3
CC(C)C[C@H](NC(=O)[C@H](Cc1ccc(O)cc1)NC(=O)[C@@H](NC(=O)[C@@H](NC(=O)[C@H](CC(N)=O)NC(=O)[C@H](CCC(N)=O)NC(=O)[C@H](C)NC(=O)[C@H](CCC(=O)O)NC(=O)[C@@H]1CCCN1)[C@@H](C)O)[C@@H](C)O)C(=O)N[C@@H](Cc1c[nH]c2ccccc12)C(=O)N[C@@H](Cc1c[nH]c2ccccc12)C(=O)O	3	
CC[C@H](C)[C@H](NC(=O)[C@H](CCC(=O)O)NC(=O)[C@@H]1CCCN1)C(=O)N[C@@H](CCC(N)=O)C(=O)N[C@@H](CC(N)=O)C(=O)N[C@H](C(=O)N[C@H](C(=O)N[C@@H](Cc1ccc(O)cc1)C(=O)N[C@@H](CC(C)C)C(=O)N[C@@H](Cc1c[nH]c2ccccc12)C(=O)N[C@@H](Cc1c[nH]c2ccccc12)C(=O)O)[C@@H](C)O)[C@@H](C)O	3	
CC[C@H](C)[C@H](NC(=O)[C@H](CCC(=O)O)NC(=O)[C@@H]1CCCN1)C(=O)N[C@@H](CCC(N)=O)C(=O)N[C@@H](CC(N)=O)C(=O)N[C@H](C(=O)N[C@H](C(=O)N[C@@H](Cc1ccc(O)cc1)C(=O)N[C@@H](CC(C)C)C(=O)N[C@@H](Cc1c[nH]c2ccccc12)C(=O)N[C@@H](Cc1c[nH]c2ccccc12)C(=O)N[C@H](C(=O)O)C(C)C)[C@@H](C)O)[C@@H](C)O	3	
CC[C@H](C)[C@H](NC(=O)[C@H](CC(N)=O)NC(=O)[C@H](CO)NC(=O)[C@@H](NC(=O)[C@H](Cc1ccccc1)NC(=O)[C@H](CC(C)C)NC(=O)[C@H](CCC(=O)O)NC(=O)[C@@H](N)CCC(N)=O)[C@@H](C)CC)C(=O)O	1	
CC[C@H](C)[C@H](NC(=O)[C@H](CCC(=O)O)NC(=O)[C@@H](N)CCCNC(=N)N)C(=O)N[C@H](C(=O)N[C@@H](Cc1ccc(O)cc1)C(=O)N1CCC[C@H]1C(=O)N[C@@H](CC(N)=O)C(=O)N[C@@H](C)C(=O)N[C@@H](CO)C(=O)N[C@@H](CC(C)C)C(=O)N[C@@H](CC(C)C)C(=O)O)[C@@H](C)CC	4	
CC(C)C[C@H](NC(=O)CNC(=O)[C@H](CO)NC(=O)[C@H](CC(N)=O)NC(=O)[C@H](CCCCN)NC(=O)[C@H](CCC(=O)O)NC(=O)[C@@H](N)[C@@H](C)O)C(=O)N[C@@H](Cc1ccc(O)cc1)C(=O)O	1	
CC(C)C[C@H](NC(=O)CNC(=O)[C@H](CO)NC(=O)[C@H](CC(N)=O)NC(=O)[C@H](CCCCN)NC(=O)[C@H](CCC(=O)O)NC(=O)[C@@H](N)[C@@H](C)O)C(=O)N[C@@H](Cc1ccc(O)cc1)C(=O)N[C@H](C(=O)O)[C@@H](C)O	1	
CC[C@H](C)[C@H](NC(=O)CNC(=O)[C@H](CS)NC(=O)[C@H](CCC(=O)O)NC(=O)[C@@H](N)Cc1ccc(O)cc1)C(=O)N[C@@H](CCC(N)=O)C(=O)N[C@@H](CC(N)=O)C(=O)N[C@@H](CCC(=O)O)C(=O)N[C@@H](CC(C)C)C(=O)O	5	
CC[C@H](C)[C@H](NC(=O)CNC(=O)[C@H](CS)NC(=O)[C@H](CCC(=O)O)NC(=O)[C@@H](N)Cc1ccc(O)cc1)C(=O)N[C@@H](CCC(N)=O)C(=O)N[C@@H](CC(N)=O)C(=O)N[C@@H](CCC(=O)O)C(=O)N[C@@H](CC(C)C)C(=O)N[C@@H](CO)C(=O)N[C@H](C(=O)O)C(C)C	5	

Like-named read-outs stand apart in the source and are kept apart here.
